We go through 33 compounds from PubChem BioAssay AID1530 (NMMLSC, 2009).

This is a selection; strong and weak results do not stand in their true shares. Calls of active or inactive are those of the source. Rule as the data show it: active = percent response above about 24% (passing the limit was not always enough); inactive = the rest.

The assay relates to MEKK2 (MAP3K2) mutant PB1 domain binding to MEK5, human. As to the kind of experiment: MEK5 binding signal on mutant MEKK2 PB1, primary screen, biochemical, multiplex bead flow cytometry, Alexa488-MEK5 (AID 1530). As to conditions: at 10 µM, active compounds read high. In general terms: In flow cytometry, cells or beads pass a laser one at a time.
In the case of `O=C(O)COc1ccc([As](=O)(O)O)cc1[N+](=O)[O-]`, the percent response is inactive: 8%. The result for `Nc1ccccc1[As](=O)(O)c1ccccc1` reads inactive: 7%. The value for `CS(=O)(=O)c1cc([N+](=O)[O-])c2no[n+]([O-])c2c1` was inactive: -21%; that for `CCOP1(=S)c2c(C)nn(CCC#N)c2N=C(c2ccccc2F)N1C` (stereo not drawn) was inactive: 6%; that for `O=P(Nc1nccs1)(Oc1ccccc1)Oc1ccccc1` was inactive: 6%.

Consider `O=P(Nc1nccs1)(c1ccccc1)c1nc2ccccc2s1` (stereo not drawn), for which the percent response is inactive: 4%. The result for `CC(C)NC(=O)NP(=O)(Oc1ccccc1)Oc1ccccc1` reads inactive: 2%; that for `CCN(CC)C(=S)SC(NC=O)C(Cl)(Cl)Cl` (stereo not drawn), inactive: 9%; that for `O=[N+]([O-])c1cc([N+](=O)[O-])c(-c2ccn[nH]2)s1`, inactive: 1%. As for `CC(C)c1ccc(OP(=O)(Nc2ccccn2)Oc2ccccc2F)cc1` (stereo not drawn), the percent response is inactive: -1%. The result for `ClCCSc1nnc(-c2cccnc2)o1` reads inactive: 0%; that for `Cc1ccc2nc3c(c(C)c2c1)CC(C(Cl)Cl)S3` (stereo not drawn), inactive: 1%; that for `Cc1ccc(OP(=O)(Nc2ccc([N+](=O)[O-])cn2)Oc2ccc(C)cc2)cc1`, inactive: 9%. The result for `O=[As](O)(c1ccc(O)cc1)c1ccccc1O` reads inactive: 8%; that for `C[As](=O)(O)c1cccc(C(=O)O)c1`, inactive: 7%; that for `COc1ccc(N/C(=N/P(=O)(N2CCOCC2)N2CCOCC2)N2CCOCC2)cc1`, inactive: -1%. The value for `COc1ccc2nc(NP(=O)(c3ccccc3)c3ccccc3)sc2c1` was inactive: -1%; that for `COc1cc(I)ccc1[As](=O)(O)O` was inactive: 0%. Turning to `O=C(OC1CN2CCC1CC2)C12CC3CC(CC(C3)C1)C2` (stereo not drawn), the percent response was inactive: 2%.

Consider `Cc1cc(=O)[nH]c(N[N+](=O)[O-])n1`, for which the percent response was inactive: -3%. The result for `Cc1c2c(nc3ccccc13)SC(C(Cl)Cl)C2` (stereo not drawn) reads inactive: -1%; that for `CCC(C)N(CC(C)C)C(=S)SC(NC(C)=O)C(Cl)(Cl)Cl` (stereo not drawn), inactive: 1%; that for `CCOC(=O)c1ccc(NC(=O)C(C)(CCl)SC)cc1` (stereo not drawn), inactive: -4%.

As for `O=C(OC1CN2CCC1CC2)c1cccc([N+](=O)[O-])c1` (stereo not drawn), the percent response is inactive: 2%.

As to `O=C(Nc1ccncc1[N+](=O)[O-])c1ccc([N+](=O)[O-])cc1[N+](=O)[O-]`, the percent response was inactive: 7%. The value for `COP1(=S)c2c(C)nn(CCC#N)c2N=C(c2ccc(F)cc2)N1C` (stereo not drawn) was inactive: 3%. On to `O=[N+]([O-])c1ccc(Nc2ccc(Oc3ccc([N+](=O)[O-])cc3[N+](=O)[O-])cc2)c([N+](=O)[O-])c1`, for which the percent response was inactive: -1%. Consider `Cc1cc(SC(NC=O)C(Cl)(Cl)Cl)ncn1` (stereo not drawn), for which the percent response is inactive: -1%. The result for `O=P(Nc1ccccn1)(c1cccc2ccccc12)c1cccc2ccccc12` reads inactive: 1%; that for `CCOC(=O)Nc1cccc([As](=O)(O)O)c1`, inactive: 10%.

As for `CCCCOc1ccc(C(=O)NCC2(N3CCCCC3)CCCCC2)cc1OC`, the percent response is inactive: 8%. The result for `Cc1cc(SC(NC(=O)c2ccccc2)C(Cl)(Cl)Cl)nc(C(C)C)n1` (stereo not drawn) reads inactive: 31%; that for `CCOC(=O)Nc1ccc([As](=O)(O)O)c(O)c1`, inactive: 4%.
